Assays:
[1] = biological target: Delta-type opioid receptor (Rattus norvegicus, UniProt P33533); test: Displacement of [3H]DPDPE from Sprague-Dawley rat delta opioid receptor by liquid scintillation counting
Mu-type opioid receptor = Mu-type opioid receptor (Rattus norvegicus, UniProt P33535)

Amino acid sequences for entries named in this document (tags omitted).
UniProt P33533, whole entry, looked up: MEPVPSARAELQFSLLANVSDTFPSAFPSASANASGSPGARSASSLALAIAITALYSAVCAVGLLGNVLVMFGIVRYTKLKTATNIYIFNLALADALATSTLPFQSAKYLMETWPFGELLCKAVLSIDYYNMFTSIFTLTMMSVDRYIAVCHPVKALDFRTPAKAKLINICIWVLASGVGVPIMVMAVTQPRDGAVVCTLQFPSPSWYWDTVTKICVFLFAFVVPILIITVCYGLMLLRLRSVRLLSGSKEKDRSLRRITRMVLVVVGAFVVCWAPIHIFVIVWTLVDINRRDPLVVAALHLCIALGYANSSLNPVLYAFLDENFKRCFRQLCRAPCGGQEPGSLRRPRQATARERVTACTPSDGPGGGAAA
UniProt P33535, whole entry, looked up: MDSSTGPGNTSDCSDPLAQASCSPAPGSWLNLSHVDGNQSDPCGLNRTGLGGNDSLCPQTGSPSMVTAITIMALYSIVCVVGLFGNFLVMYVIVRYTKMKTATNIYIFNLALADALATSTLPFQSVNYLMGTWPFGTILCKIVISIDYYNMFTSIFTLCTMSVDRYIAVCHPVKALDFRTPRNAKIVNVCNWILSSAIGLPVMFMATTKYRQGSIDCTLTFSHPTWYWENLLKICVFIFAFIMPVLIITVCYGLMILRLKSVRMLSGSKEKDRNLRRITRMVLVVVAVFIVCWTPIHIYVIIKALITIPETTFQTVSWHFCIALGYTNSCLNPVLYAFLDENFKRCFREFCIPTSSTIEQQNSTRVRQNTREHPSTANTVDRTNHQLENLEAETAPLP

For `CN(C(=O)Cc1ccc(Cl)c(Cl)c1)C1CCCCC1N1CCCC1` (configuration not stated), the Ki [1] was greater than 5000 nM and the Ki (Mu-type opioid receptor) was 1750 nM.

Source: ChEMBL document CHEMBL1250436, “Evaluation of N-substitution in 6,7-benzomorphan compounds” (Bioorg Med Chem, 2010)
